Measured values taken from article PMC5061470, “Promiscuous targeting of bromodomains by bromosporine identifies BET proteins as master regulators of primary transcription response in leukemia” (Science Advances, 2016).

Chains of the proteins cited; added tags and fusions are not shown. Residues count along the entry.
UniProt P25440, 344-453 limits assumed: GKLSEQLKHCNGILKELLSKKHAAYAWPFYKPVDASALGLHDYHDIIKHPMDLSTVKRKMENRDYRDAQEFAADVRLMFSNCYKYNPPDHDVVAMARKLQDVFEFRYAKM

Biological target: BRD2(2) (Homo sapiens, UniProt P25440)
Details: pH 7.5

For CCOC(=O)Nc1cc(-c2ccc(C)c(NS(C)(=O)=O)c2)nn2c(C)nnc12 [BSP, ethyl (3-methyl-6-(4-methyl-3-(methylsulfonamido)phenyl)-[1,2,4]triazolo[4,3-b]pyridazin-8-yl)carbamate], which Kd is on record?
Its Kd is 0.0503 ± 0.005 µM.
